The values below are quoted from earlier work in US20250325690A1, “ANTIBODY-DRUG CONJUGATE WITH TWO TYPES OF DRUG-LINKER CONJUGATES ON SINGLE ANTIBODY” (priority 2022, published 2025).

For series [1] the following is noted: 0.8 mg/kg to 8.0 mg/kg once every three weeks; cited from earlier work.
For series [2] the following is noted: human, in vivo; cited from earlier work.
The conditions of series [3]: human, in vivo; cited from earlier work. This is another data set of the same source.

On to Enhertu, for which, in series [1], the dose-limiting toxicity entry was “No dose-limiting toxicity was observed”. Further, the “dose reduction caused by adverse reactions, patients” value in series [2] is 23.4%. For the same substance, in series [3], the “patients with severe inflammatory side effects” value is recorded as 10-15%.
